Where two headings read alike, the source gives them in different places. One block for each molecule: values may come before it.
Legend:
[1] = Biodistribution studies in healthy BALB/c mice; assay type: in vivo
[2] = logD determination; assay type: physicochemical
[3] = target: T1, asialoglycoprotein receptor (ASGR) (Mus musculus, UniProt P24721+P34927); experiment: Competitive binding against [^125I]I-asialoorosomucoid on freshly isolated mouse hepatocytes; settings: [^125I]I-asialoorosomucoid 5 nM, 1 hour on ice
T1 construct: endogenous in cells; host or cells: primary hepatocytes freshly isolated from C57BL/6 mice (collagenase perfusion)
T1 sequence (P34927 1-284): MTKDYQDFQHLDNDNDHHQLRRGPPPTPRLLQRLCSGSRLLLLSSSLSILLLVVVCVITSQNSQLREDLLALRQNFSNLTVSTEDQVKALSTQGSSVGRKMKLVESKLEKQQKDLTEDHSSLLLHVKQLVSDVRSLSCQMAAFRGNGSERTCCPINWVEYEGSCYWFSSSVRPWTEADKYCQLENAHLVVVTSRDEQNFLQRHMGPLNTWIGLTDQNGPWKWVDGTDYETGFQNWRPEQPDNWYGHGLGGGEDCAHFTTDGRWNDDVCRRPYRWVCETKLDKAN
T1 sequence (P24721 1-301): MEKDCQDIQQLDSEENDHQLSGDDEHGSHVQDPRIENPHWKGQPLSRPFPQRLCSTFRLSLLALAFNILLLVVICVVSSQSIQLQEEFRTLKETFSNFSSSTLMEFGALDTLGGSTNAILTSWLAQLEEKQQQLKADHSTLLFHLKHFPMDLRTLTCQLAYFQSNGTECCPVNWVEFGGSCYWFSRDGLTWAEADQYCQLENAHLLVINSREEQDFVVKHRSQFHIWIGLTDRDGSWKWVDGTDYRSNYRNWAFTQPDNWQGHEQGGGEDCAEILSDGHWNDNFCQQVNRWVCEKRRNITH
Protocol: Inhibitory constant (IC50) values were determined in triplicates using freshly isolated mouse hepatocytes (Seglen [1976]). A detailed protocol can be found in the supplementary information. In brief, cells were incubated in presence of [^125I]I-asialoorosomucoid (5 nM) with various ligand concentrations ranging from 10^− 5-10^− 11 M for 1 hour on ice. Cells were washed and cell bound activity was released by addition of 200 µL 1 M NaOH for 10 min. The activity content in the lysates was quantified in a γ-counter (2480 Wizard^2 3”, PerkinElmer, Waltham, Massachussetts, USA) and the values were plotted in excel. Fitting of the sigmoidal binding curve and the calculation of the IC50 value was done with excel’s solver plugin.
Furthermore, low protein binding could be observed, rising from 7.6 ± 3.9% (n = 3) after 2 min to 13.6 ± 3.2% (n = 3) after 120 min of incubation. […] Binding to the ASGR was quantified in an assay with freshly isolated mouse hepatocytes using the ^natGa-complex of NODAGA-TriGalactan. […] For comparison, the affinity of GSA for the receptor was also determined.
Isolation of murine hepatocytes followed the collagenase perfusion method published by Seglen. […] Hepatocytes were resuspended in 20 – 30 mL of William’s E + Glutamaxx + 10 % FCS + 1 % Penicillin/Streptomycin (Gibco, Thermofisher Scientific) and counted, typically yielding 30 – 40 × 10^6 cells/animal. […]

[4] = ref Haubner et al. [2013], cited from earlier work
[5] = human blood serum, ref Haubner et al. [2013], cited from earlier work

Molecule: O=C([O-])CN1CCN(CC(=O)[O-])CCN([C@H](CCC(=O)NCCCC(=O)NC(COCc2cn(CCOCCOCCO[C@@H]3O[C@H](CO)[C@H](O)[C@H](O)[C@H]3O)nn2)(COCc2cn(CCOCCOCCO[C@@H]3O[C@H](CO)[C@H](O)[C@H](O)[C@H]3O)nn2)COCc2cn(CCOCCOCCO[C@@H]3O[C@H](CO)[C@H](O)[C@H](O)[C@H]3O)nn2)C(=O)[O-])CC1.[68Ga+3] [[^68Ga]Ga-NODAGA-TriGalactan]
- Biodistribution Heart ([1]; 10 min p.i.): 1.18 ± 0.08 % ID/g
- Biodistribution Stomach ([1]; 10 min p.i.): 1.42 ± 0.23 % ID/g

Molecule: [^99mTc]Tc-diethylenetriamine-pentaacetic acid galactosyl human serum albumin [^99mTc-GSA, reference compound]
- logD [2]: -1.88 ± 0.02 (n = 8)
- Biodistribution Blood ([1]; 10 min p.i.): 3.13 ± 0.15 % ID/g
- Biodistribution Femur ([1]; 10 min p.i.): 1.54 ± 0.18 % ID/g
- Biodistribution Heart ([1]; 10 min p.i.): 1.47 ± 0.07 % ID/g
- Biodistribution Intestine ([1]; 10 min p.i.): 1.10 ± 0.05 % ID/g
- Biodistribution Kidneys ([1]; 10 min p.i.): 7.35 ± 0.51 % ID/g
- Biodistribution Liver ([1]; 10 min p.i.): 58.1 ± 6.7 % ID/g
- Biodistribution Lung ([1]; 10 min p.i.): 2.04 ± 0.11 % ID/g
- Biodistribution Muscle ([1]; 10 min p.i.): 0.60 ± 0.04 % ID/g
- Biodistribution Pancreas ([1]; 10 min p.i.): 0.64 ± 0.02 % ID/g
- Biodistribution Spleen ([1]; 10 min p.i.): 1.37 ± 0.16 % ID/g
- Biodistribution Stomach ([1]; 10 min p.i.): 0.91 ± 0.01 % ID/g
- Biodistribution Blood ([1]; 30 min p.i.): 2.76 ± 0.57 % ID/g
- Biodistribution Femur ([1]; 30 min p.i.): 3.64 ± 1.98 % ID/g
- Biodistribution Heart ([1]; 30 min p.i.): 1.08 ± 0.16 % ID/g
- Biodistribution Intestine ([1]; 30 min p.i.): 6.41 ± 1.05 % ID/g
- Biodistribution Kidneys ([1]; 30 min p.i.): 10.5 ± 2.00 % ID/g
- Biodistribution Liver ([1]; 30 min p.i.): 51.3 ± 2.78 % ID/g
- Biodistribution Lung ([1]; 30 min p.i.): 1.64 ± 0.20 % ID/g
- Biodistribution Muscle ([1]; 30 min p.i.): 0.45 ± 0.06 % ID/g
- Biodistribution Pancreas ([1]; 30 min p.i.): 0.48 ± 0.07 % ID/g
- Biodistribution Spleen ([1]; 30 min p.i.): 1.42 ± 0.39 % ID/g
- Biodistribution Stomach ([1]; 30 min p.i.): 1.61 ± 0.20 % ID/g
- Biodistribution Blood ([1]; 60 min p.i.): 1.98 ± 0.10 % ID/g
- Biodistribution Femur ([1]; 60 min p.i.): 2.48 ± 0.48 % ID/g
- Biodistribution Heart ([1]; 60 min p.i.): 0.81 ± 0.07 % ID/g
- Biodistribution Intestine ([1]; 60 min p.i.): 9.8 ± 1.6 % ID/g
- Biodistribution Kidneys ([1]; 60 min p.i.): 9.21 ± 0.21 % ID/g
- Biodistribution Liver ([1]; 60 min p.i.): 46.3 ± 5.9 % ID/g
- Biodistribution Lung ([1]; 60 min p.i.): 1.38 ± 0.11 % ID/g
- Biodistribution Muscle ([1]; 60 min p.i.): 0.39 ± 0.00 % ID/g
- Biodistribution Spleen ([1]; 60 min p.i.): 1.18 ± 0.20 % ID/g
- Biodistribution Stomach ([1]; 60 min p.i.): 2.43 ± 1.45 % ID/g
- IC50 [3]: 19.6 ± 17.1 nM
- PBS stability ([4]; 2 min): 97.6 (Haubner et al. [2013]) %
- PBS stability ([4]; 30 min): 97.1 (Haubner et al. [2013]) %
- PBS stability ([4]; 120 min): 95.6 (Haubner et al. [2013]) %
- Serum stability ([5]; 2 min): 82 (Haubner et al. [2013]) %
- Serum stability ([5]; 30 min): 76 (Haubner et al. [2013]) %
- Serum stability ([5]; 60 min): 70 (Haubner et al. [2013]) %
- Serum stability ([5]; 120 min): 65 (Haubner et al. [2013]) %

- IC50 [3]: 19.6 ± 17.1 nM
Molecule: DTPA-conjugated galactosyl human serum albumin [GSA]

Source: publication PMC11096148, “[^68Ga]Ga-NODAGA-TriGalactan, a low molecular weight tracer for the non-invasive imaging of the functional liver reserve” (EJNMMI Radiopharmacy and Chemistry, 2024)
